## Ab-14 heavy chain CDR variants: yeast mating affinities

From the AlphaSeq antibody data of Li et al. 2023 (doi:10.1038/s41467-023-39022-2), copy in the FLAb collection.

All variants were tested on one target, the spike HR2 peptide PDVDLGDISGINAS (SARS-CoV-2).

The variants keep the light chain, the linker and the frameworks of Ab-14 (scFv order VH, the linker GGGGSGGGGSGGGGS, VL).
VH: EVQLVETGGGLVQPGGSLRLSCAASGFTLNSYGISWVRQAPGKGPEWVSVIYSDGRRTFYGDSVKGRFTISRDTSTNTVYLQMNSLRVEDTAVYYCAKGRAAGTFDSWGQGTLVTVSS
VL: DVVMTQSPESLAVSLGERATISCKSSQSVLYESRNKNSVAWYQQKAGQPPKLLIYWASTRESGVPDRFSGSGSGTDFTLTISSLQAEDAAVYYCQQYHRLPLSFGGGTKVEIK

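The parent was found by panning a naive human phage display library on the peptide. Designed CDR sequences, proposed from the first random library and measured here. Group labels follow the data file (Ctrl: baseline library sampled from a position-specific scoring matrix, with some repeated check sequences; GPLM: also part of the Gaussian process libraries; Gen: genetic algorithm; a sequence that several methods proposed may carry one label only). The scFvs were displayed on barcoded MATa yeast, the peptide on MATalpha yeast. Mating (16 h, 30 °C) was followed by selection of diploids and sequencing of their barcodes. Scores were corrected for input abundance and mapped to Kd with protein pairs of known affinity run in the same pool. The assay was run in six technical replicates.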

The parent's heavy chain CDRs are GFTLNSYGIS, VIYSDGRRTFYGDSVK, GRAAGTFDS; each variant's own CDRs replace them letter for letter. Affinities are written as log10 Kd with Kd in nM; a lower number is a better binder. A mean of the replicates is given; it leaves out those without a signal. A pair that was not seen in that replicate is written "nd"; this usually means weak binding, but a binder can also be missed. Values of this round are not directly comparable with the first-round values of the same sequences.

Variant GFTLQSYGIS, VIYSDGRRTAYGDSVK, GFAAGTFDS [Ctrl] showed 1.53, nd, nd, 1.97, 1.18, 1.11 (mean 1.44; controls 0 of 18).
Variant GFELNSYGIS, VIYSDGRRTAYSDDVK, ARAALTFDS [Ctrl] showed nd, nd, nd, nd, nd, nd (controls 1 of 18).
Variant GFTLNDYGIS, VIYSDGSRTFYGDSVK, GRGAGTFDS [Ctrl] showed nd, nd, nd, nd, nd, nd (controls 0 of 18).
Variant GENLNSYGIS, VIYSDGRRTFYGDSVK, GRAAGTFDN [Ctrl] showed nd, nd, nd, nd, 3.12, nd (controls 0 of 18).
Variant GQTLNSYGIS, VIYADGHRRFYGDSVK, GRAADTFDS [Ctrl] showed nd, nd, nd, nd, nd, nd (controls 0 of 18).
Variant GFDLNSYGVS, VIYSDGRKTFYYDSVK, GRAAGTFDS [Ctrl] showed nd, nd, nd, nd, nd, nd (controls 1 of 18).
Variant GRTLNQYGIS, VIYSDGRRTFYGDSVK, GRAAGTFDS [Ctrl] showed nd, 0.86, nd, nd, nd, nd (controls 0 of 18).
Variant GFTLNSYGIT, VIYSDGRRTFYGDSVK, GRVAGTFDS [Ctrl] showed nd, nd, nd, nd, nd, nd (controls 0 of 18).
Variant GFTLNDYGIT, VIYSDGRRKFYGDSVK, GRAAGTFDS [Ctrl] showed 1.39, 1.40, 1.69, 1.61, 3.31, 1.25 (mean 1.77; controls 0 of 18).
Variant GFTLNSYGIS, VIYSDGRRTFYGDQVK, GKIALTFDS [Ctrl] showed nd, nd, nd, nd, nd, nd (controls 0 of 18).
Variant GFTLNEYGIS, VIYSDGQRTFYQDSVK, GRAAGTFDS [Ctrl] showed 0.20, 1.21, 1.32, 0.08, 1.09, -0.12 (mean 0.63; controls 0 of 18).
Variant GFTLNSRGIS, VIYSDGRRTFYGDSVK, GRAQGTFDH [Ctrl] showed nd, nd, nd, nd, nd, nd (controls 0 of 18).
Variant GFTLNSYGIS, VIYSDGRRTFYGDSVK, SGASGTFNS [Ctrl] showed nd, 2.68, nd, nd, nd, nd (controls 0 of 18).
Variant GFNLDSYGIS, VIYSDGRRTFYGDSVK, LREAGTFDS [Ctrl] showed nd, nd, nd, nd, 2.38, nd (controls 0 of 18).
Variant GFTLNSYGIS, VIYSDGMRTYYGDSVK, GRAAGTFDS [Ctrl] showed 1.73, 1.56, nd, 1.81, nd, nd (mean 1.70; controls 0 of 18).
Variant GFTLQSYGIS, VIYSDGRRTFYSDNVK, GRAAGTFDS [Ctrl] showed 0.23, nd, 1.19, 0.87, nd, nd (mean 0.76; controls 0 of 18).
Variant GENLNSYGIS, VIYSDGRRTFYDDSVK, GRAAGTFDS [Ctrl] showed nd, 2.54, 1.63, nd, nd, nd (mean 2.08; controls 0 of 18).
Variant GFTLNSYGIS, VIYADGRRTFYGDSVK, GRAAGQFNS [Ctrl] showed nd, nd, nd, nd, nd, nd (controls 0 of 18).
Variant GFTLNSYGIS, VIYSDGRRTCYGDSVK, GRAAGTFDS [Ctrl] showed nd, nd, nd, nd, nd, nd (controls 0 of 18).
Variant GFTLNSYGIS, VIYSDGRRAFYGDSVK, GKAALTFKS [Ctrl] showed nd, nd, nd, nd, nd, nd (controls 0 of 18).
Variant GFTLNDYGIS, VIYSDGMRTFYGDSVK, GREAGTFDS [Ctrl] showed nd, 1.42, nd, 0.09, 0.77, nd (mean 0.76; controls 0 of 18).
Variant GFTLNSYGIS, VIYSDGRRTFYSDSVK, GRVAGTFDS [Ctrl+GPLM_Gen] showed 1.76, 0.05, 0.27, 0.33, 0.57, 0.06; nd, 1.35, 3.56, 2.15, 2.07, 2.04 (mean 1.29; controls 0 of 36).
Variant GFTLNSYGIS, VIYSDGRRTFYQDSVK, GRAAGTFTQ [Ctrl] showed nd, nd, nd, nd, nd, nd (controls 0 of 18).
Variant KFTLNSYGIS, VIYSDGRRTFYSDSVK, GRAAGTFRS [Ctrl] showed 1.70, 1.72, nd, nd, 2.28, 2.47 (mean 2.04; controls 1 of 18).
Variant GFWLNSYGIS, VIYSDGRRTFYGDSVK, GEVEGTFDS [Ctrl] showed nd, nd, nd, nd, nd, nd (controls 0 of 18).
Variant GFTLNMYGIS, VIYSDGRRTFYGDSVK, GRFAGTFDS [Ctrl] showed nd, 0.29, 0.53, nd, 2.29, 1.98 (mean 1.27; controls 0 of 18).
Variant GFVLQSYGIS, VIYSDGRRTFYNDSVK, GKAAGTFRD [Ctrl] showed nd, nd, 1.58, nd, nd, nd (controls 2 of 18).
Variant GFTINEYGIS, VIYADGKRTFYIDSVK, GSEAGTFDS [Ctrl] showed -0.55, -0.61, -0.66, -1.18, -1.14, -0.59 (mean -0.79; controls 0 of 18).
Variant GFSLNSYGIS, VIYSDGRRTFYGDSVK, GRNAGTFDS [Ctrl+GPLM_Gen] showed 0.30, 0.58, 0.09, -0.42, -0.24, 0.41; 0.74, 0.03, 0.18, -0.03, 0.82, 0.16 (mean 0.22; controls 0 of 36).
Variant GFTLNSYGIS, VIYSDGRRTFYGDSVK, GVSAGTFDL [Ctrl] showed nd, nd, nd, nd, nd, nd (controls 0 of 18).
Variant GFWLNEYGIS, VIYSDGRRTFYTDSVK, GRAAGNFDS [Ctrl] showed nd, nd, nd, nd, nd, nd (controls 0 of 18).
Variant GFSLNMYGIS, VIYADGRRTFYGDSVK, GRAAGTDDS [Ctrl] showed nd, nd, nd, nd, nd, nd (controls 1 of 18).
Variant DFKLNSYGIS, VIYSDGRRTFYGDSVK, GSAAGLFDS [Ctrl] showed nd, nd, nd, nd, nd, nd (controls 2 of 18).
Variant KFNLNSYGIS, VIYSDGRRVFYGDSVK, GRAAGTFDS [Ctrl] showed nd, nd, nd, nd, nd, nd (controls 0 of 18).

Top 2 of the variants detected in all replicates, tightest first:

GFTINEYGIS, VIYADGKRTFYIDSVK, GSEAGTFDS [Ctrl]: -0.55, -0.61, -0.66, -1.18, -1.14, -0.59 (mean -0.79; controls 0 of 18).
GFSLNSYGIS, VIYSDGRRTFYGDSVK, GRNAGTFDS [Ctrl+GPLM_Gen]: 0.30, 0.58, 0.09, -0.42, -0.24, 0.41; 0.74, 0.03, 0.18, -0.03, 0.82, 0.16 (mean 0.22; controls 0 of 36).

A sequence that the file lists under several names has all its replicates listed entry by entry, parted by semicolons. The parent sequence was in this pool as ten entries: three were never detected, three once, and four in most replicates, with averages from 0.34 to 2.37. As a blank, each scFv also met three strains without target: over all heavy chain designs, 1% of these pairings were detected, typically at 2.08 and seldom below 0.84. For each scFv, signals with the empty controls are counted beside the result. The authors averaged sequences with at least three values out of six and counted those with two or fewer as poor binders.